The target in the assay is Prothrombin (Homo sapiens, UniProt P00734).

The structures appear in SMILES notation.

On to `CC1CCCCN1C(=O)N(Cc1cccc(C(=N)NO)c1)NS(=O)(=O)c1ccc2ccccc2c1` (stereo unspecified), for which the affinity, expressed as Ki, was 12 µM.

One may read the Ki as a dissociation constant, usually derived from enzyme kinetics or from competition with a known ligand. The low end stands for tighter binding, the high end for weaker binding.

Values taken from ChEMBL document CHEMBL1137966, “Thrombin inhibitors built on an azaphenylalanine scaffold” (Bioorg Med Chem Lett, 2004).
